Source: patent publication EP2330125A2 (priority 2005, dated 2007)

By UniProt entry, the sequences of proteins in these tests, tags left out. Residues count along the entry.
UniProt P49146, whole entry: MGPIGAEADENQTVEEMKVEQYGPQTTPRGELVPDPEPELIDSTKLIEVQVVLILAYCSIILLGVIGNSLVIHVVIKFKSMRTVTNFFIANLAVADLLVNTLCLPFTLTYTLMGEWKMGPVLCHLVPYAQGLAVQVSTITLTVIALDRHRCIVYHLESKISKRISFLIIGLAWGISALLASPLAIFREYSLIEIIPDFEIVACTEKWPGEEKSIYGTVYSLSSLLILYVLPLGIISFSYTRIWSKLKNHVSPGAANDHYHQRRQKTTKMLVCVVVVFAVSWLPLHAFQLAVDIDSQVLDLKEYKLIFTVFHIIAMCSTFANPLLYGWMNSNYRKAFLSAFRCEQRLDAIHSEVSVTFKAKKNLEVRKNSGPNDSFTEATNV
UniProt O60894, 27-148 partner: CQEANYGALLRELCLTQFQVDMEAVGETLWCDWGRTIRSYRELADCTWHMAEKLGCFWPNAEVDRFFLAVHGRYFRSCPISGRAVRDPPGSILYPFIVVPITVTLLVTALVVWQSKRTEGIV
UniProt Q16602, 23-461: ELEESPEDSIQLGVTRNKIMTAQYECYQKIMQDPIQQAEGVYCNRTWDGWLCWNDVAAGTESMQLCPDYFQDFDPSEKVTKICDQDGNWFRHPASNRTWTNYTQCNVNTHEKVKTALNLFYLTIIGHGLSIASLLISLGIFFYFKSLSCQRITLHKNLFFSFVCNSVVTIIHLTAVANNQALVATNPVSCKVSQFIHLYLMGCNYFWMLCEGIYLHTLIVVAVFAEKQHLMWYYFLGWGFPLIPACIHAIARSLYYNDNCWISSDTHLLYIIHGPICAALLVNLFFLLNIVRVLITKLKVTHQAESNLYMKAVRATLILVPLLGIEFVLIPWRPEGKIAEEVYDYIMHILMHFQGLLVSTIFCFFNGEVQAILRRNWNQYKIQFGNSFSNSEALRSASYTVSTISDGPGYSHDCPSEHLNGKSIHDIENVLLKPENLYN

Tests used:
[1] = molecular target: T1, GLP-1 receptor (Rattus norvegicus, UniProt P32301); format: binding
T1 construct: the receptor source is RINm5F cell membranes; endogenous in cells; host or cells: RINm5F cell membranes
T1 sequence (P32301 22-463): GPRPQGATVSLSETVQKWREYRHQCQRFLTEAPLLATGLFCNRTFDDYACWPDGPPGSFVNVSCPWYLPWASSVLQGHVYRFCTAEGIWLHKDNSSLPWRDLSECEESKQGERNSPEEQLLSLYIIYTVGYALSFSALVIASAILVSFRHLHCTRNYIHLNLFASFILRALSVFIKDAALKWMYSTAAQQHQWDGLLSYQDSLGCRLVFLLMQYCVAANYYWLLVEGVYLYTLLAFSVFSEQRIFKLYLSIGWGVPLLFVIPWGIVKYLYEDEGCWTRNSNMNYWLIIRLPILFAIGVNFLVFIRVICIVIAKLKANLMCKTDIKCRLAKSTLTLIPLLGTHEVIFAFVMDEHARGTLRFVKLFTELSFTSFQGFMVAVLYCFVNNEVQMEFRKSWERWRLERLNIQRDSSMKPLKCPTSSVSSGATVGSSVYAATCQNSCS

[2] = molecular target: T2, neuropeptide Y2 receptors (Homo sapiens, UniProt P49146); conditions: read-out: Receptor Binding Y2
T2 construct: SK-N-BE cells that endogenously expresses the neuropeptide Y2 receptors; endogenous in cells; host or cells: SK-N-BE cell membranes

[3] = molecular target: T3, CGRP receptors (Homo sapiens, UniProt O60894+Q16602); format: binding
T3 construct: SK-N-MC and L6 cells expressing endogenous CGRP receptors; endogenous in cells; host or cells: SK-N-MC cell membranes

[4] = molecular target: T4, CT receptor (Rattus norvegicus, UniProt P32214); format: cell-based; conditions: read-out: Receptor Activation CT cyclase
T4 construct: host or cells: 'C1A' (not explained)
T4 sequence (P32214 25-479 isoform P32214-2 limits assumed): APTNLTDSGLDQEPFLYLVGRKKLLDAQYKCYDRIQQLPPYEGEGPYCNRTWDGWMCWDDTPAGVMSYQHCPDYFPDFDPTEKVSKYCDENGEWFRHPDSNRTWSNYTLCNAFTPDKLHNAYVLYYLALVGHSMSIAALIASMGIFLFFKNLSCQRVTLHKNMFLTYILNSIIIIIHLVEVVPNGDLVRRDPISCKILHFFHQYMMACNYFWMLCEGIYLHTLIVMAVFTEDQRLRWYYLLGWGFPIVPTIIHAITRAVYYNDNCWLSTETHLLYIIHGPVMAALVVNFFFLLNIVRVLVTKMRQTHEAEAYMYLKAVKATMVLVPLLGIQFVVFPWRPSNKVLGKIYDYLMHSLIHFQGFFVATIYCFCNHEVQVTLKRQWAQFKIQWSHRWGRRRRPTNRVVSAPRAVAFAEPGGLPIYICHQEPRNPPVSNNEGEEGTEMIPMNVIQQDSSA

[5] = in vivo; cited from earlier work
[6] = molecular target: calcitonin receptor; conditions: read-out: Receptor Binding Assay CT

## [Ser117, dLeu119]leptin(116-122)-Amylin(1-7)-[^11,18Arg]sCT(8-27)-Amylin(33-37) [Compound 16]
[1]; read-out: IC50, GLP RBA (RIN)
  IC50: 1000 nM

## KCNTATCATQRLANFLVRSSNNLGPVLPPTNVGSNTY [rat amylin]
[2]
  IC50: > 1000 nM
[3]; read-out: Receptor Binding CGRP
  IC50: 21 nM
[4]
  EC50: 326 nM
[1]; read-out: Receptor Binding GLP-1
  IC50: > 1000 nM

## glucagon-like peptide-1 [GLP-1]
[5]
  metabolic clearance rate: 12 to 13 min
  plasma half-life of active GLP-1: < 5 min

## DF(P-CH2SO3)MGWNMFGKR KCNTATCATQRLANELVRLQTYPRTNVGSNTY [SEQ ID NO: 398]
[3]; read-out: IC50 in a CGRP receptor binding assay
  IC50: 4.4 nM

## ^29GlyGlyGly-Exendin(1-28),hAmylin(1-7)-^11,18Arg-sCt(8-27)-hAmylin(33-37) [Compound 15]
[3]; read-out: Receptor Binding Assay CGRP
  IC50: 63 nM
[6]
  IC50: 0.03 nM

Where two headings read alike, the source gives them in different places.
